Literature values as cited in patent publication US20200325487A1, “A COM[…] FOR REDUCING RANDOM I[…] WHEN TR[…]” (UNIVERSITEIT LEIDEN, priority 2017, published 2020).

Sequences of proteins named here, by UniProt entry; tags and fusion partners are left off.
UniProt P49959, whole entry, species assumed: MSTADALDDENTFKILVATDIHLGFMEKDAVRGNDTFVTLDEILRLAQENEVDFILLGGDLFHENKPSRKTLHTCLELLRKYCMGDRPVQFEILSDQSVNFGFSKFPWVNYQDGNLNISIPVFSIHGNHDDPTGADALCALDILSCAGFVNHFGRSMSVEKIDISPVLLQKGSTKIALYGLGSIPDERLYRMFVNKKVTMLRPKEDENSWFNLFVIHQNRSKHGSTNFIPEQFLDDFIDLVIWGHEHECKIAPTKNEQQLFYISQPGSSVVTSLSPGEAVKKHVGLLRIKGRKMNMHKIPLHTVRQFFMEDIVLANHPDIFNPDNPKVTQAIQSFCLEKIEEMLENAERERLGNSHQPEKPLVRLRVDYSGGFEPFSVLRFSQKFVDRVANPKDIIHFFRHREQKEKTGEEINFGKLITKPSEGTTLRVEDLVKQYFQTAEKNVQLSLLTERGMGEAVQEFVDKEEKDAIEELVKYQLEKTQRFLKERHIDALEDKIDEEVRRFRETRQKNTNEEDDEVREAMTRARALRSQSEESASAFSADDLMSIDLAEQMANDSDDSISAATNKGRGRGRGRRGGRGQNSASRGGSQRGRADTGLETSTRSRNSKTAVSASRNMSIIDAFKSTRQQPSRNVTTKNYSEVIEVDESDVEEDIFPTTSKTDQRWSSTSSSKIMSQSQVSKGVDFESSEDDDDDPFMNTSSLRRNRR

Columns and labels:
[1] = tested on: Mre1-Rab50-Nbs1 (MRN)-ATM pathway; conditions: without affecting ATM protein kinase activity; cited from earlier work
[2] = biological target: Mre11 (Homo sapiens, UniProt P49959); conditions: cited from earlier work

## [H]/N=C1/NC(=O)C(=Cc2ccc(O)cc2)S1 [Mirin, Z-5-(4-hydroxybenzylidene)-2-imino-1,3-thiazolidin-4-one]
[1]
  MRN-dependent activation of ATM: prevents MRN-dependent activation of ATM
[2]
  Mre11-associated exonuclease activity: inhibits Mre11-associated exonuclease activity
